Key:
HRECs [1] = conditions: VEGF 100 ng/mL, Ap13 10 nM
Protocol: The proliferation of HRECs was monitored by the crystal violet assay as described in our previous publication. […] After washing three times with PBS, the plates were air-dried and the remaining stain was dissolved in, 10% acetic acid and absorbance measured with a microplate reader at 540 nm.

HRECs [2] = conditions: VEGF 100 ng/mL, Ap13 10 nM; remark: listed apart in the source
Protocol: Migration was determined by the QCM™ chemotaxis 5 μm 96-well cell migration assay (Chemicon International, Inc.) as per the manufacture’s protocol. […] After 16 h, cells that migrated to the basal side of the chamber insert membrane were detached, lysed and detected using CyQuant GR™ dye. Migration is expressed as percent increase in migrated cells compared to untreated cells.

`CSCC[C@H](NC(=O)[C@@H]1CCCN1C(=O)CNC(=O)[C@H](CCCCN)NC(=O)[C@H](Cc1c[nH]cn1)NC(=O)[C@H](CO)NC(=O)[C@H](CC(C)C)NC(=O)[C@H](CCCNC(=N)N)NC(=O)[C@@H]1CCCN1C(=O)[C@H](CCCNC(=N)N)NC(=O)[C@@H](N)CCC(N)=O)C(=O)N1CCC[C@H]1C(=O)N[C@@H](Cc1ccccc1)C(=O)O` [Ap13, apelin-13] was tested, and the “Effect on HREC proliferation” value (HRECs [1]) was “no significant effect” and the “Effect on HREC migration” value (HRECs [2]) was “no significant effect”.

Source: article PMC6135396, “Repurposing antimalarial aminoquinolines and related compounds for treatment of retinal neovascularization” (PLoS ONE, 2018)
